From patent US20220265817A1, “THERAPEUTIC COMPOSITIONS AND METHODS FOR TREATING HEPATITIS B” (priority 2017, published 2022)

Tested on: D type HBV in primary human hepatocytes (HBsAg)
Test: microbe, parasite or virus in culture
Type: cell-based
Details: Hepatitis B virus, Hepatocyte, read-out: AVERAGE % INHIBITION HBsAg, compound 23 2000 nM alone (TAF study)
Procedure: The mouse liver perfusion was applied to isolate PHHs. The isolated hepatocytes were further purified by Percoll. The cells were resuspended with culture media and seeded into the 96-well plates (6×10^4 cell/well) or 48-well plates (1.2×10^5 cell/well). The PHHs were infected with a D type HBV one day post seeding (day 1).
On day 2, the test compounds were diluted and added into the cell culture plates. The culture media containing the compounds were refreshed every other day. The cell culture supernatants were collected on day 8 for the HBV DNA and antigen determinations.
The compounds were tested at 7 concentrations, 3-fold dilution, in triplicate.
Two compounds were tested at 5×5 matrix, in triplicate plates.
HBsAg/HBeAg in the culture supernatants harvested on days 8 were measured by the HBsAg/HBeAg ELISA kit (Autobio) according to the manual. The samples were diluted with PBS to get the signal in the range of the standard curve. The inhibition rates were calculated with the formula below. The combination effect was analyzed by the MacSynergy software.
% Inh. HBsAg=[1-HBsAg quantity of sample/HBV quantity of DMSO control]×100.

## CNC(=O)N[C@H]1CCOc2c(C(=O)Nc3ccc(F)c(F)c3)ccc(F)c21 [Compound 23]
  inhibition at 2 µM: 22.8%
